Test results taken from ChEMBL document CHEMBL4229484, “7β-Methyl substituent is a structural locus associated with activity cliff for nepenthone analogues” (2018).

The chains behind the UniProt entries cited, without tags or fusion partners.
UniProt P41145, whole entry: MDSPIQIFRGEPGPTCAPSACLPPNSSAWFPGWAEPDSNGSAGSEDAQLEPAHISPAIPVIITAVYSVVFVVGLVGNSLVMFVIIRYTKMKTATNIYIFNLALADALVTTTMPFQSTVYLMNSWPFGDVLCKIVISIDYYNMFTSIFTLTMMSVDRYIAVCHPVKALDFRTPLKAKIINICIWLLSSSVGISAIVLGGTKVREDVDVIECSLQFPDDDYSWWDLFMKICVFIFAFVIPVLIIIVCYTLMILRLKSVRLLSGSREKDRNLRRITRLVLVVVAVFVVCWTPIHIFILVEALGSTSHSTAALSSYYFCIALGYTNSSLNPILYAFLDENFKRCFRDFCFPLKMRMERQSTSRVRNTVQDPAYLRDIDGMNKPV
UniProt P41143, whole entry: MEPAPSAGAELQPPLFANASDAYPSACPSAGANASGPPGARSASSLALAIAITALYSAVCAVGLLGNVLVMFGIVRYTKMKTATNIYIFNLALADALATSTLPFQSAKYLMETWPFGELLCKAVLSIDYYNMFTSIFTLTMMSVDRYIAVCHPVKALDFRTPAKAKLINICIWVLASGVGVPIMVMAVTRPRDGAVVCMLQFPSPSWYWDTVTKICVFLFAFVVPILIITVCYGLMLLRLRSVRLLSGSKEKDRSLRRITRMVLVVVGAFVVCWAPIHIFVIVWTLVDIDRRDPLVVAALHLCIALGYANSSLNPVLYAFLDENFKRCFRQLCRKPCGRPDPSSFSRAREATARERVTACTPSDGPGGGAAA
UniProt P33533, whole entry: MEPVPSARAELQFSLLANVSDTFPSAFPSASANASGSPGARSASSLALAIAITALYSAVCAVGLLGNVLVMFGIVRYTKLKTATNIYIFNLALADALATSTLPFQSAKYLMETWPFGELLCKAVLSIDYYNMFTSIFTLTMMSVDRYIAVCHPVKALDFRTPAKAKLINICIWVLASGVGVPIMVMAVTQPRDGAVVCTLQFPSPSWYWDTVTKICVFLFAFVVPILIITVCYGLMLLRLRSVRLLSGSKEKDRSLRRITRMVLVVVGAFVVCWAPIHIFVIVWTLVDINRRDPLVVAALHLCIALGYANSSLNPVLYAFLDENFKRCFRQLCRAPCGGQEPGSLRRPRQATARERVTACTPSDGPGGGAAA
UniProt P33535, whole entry: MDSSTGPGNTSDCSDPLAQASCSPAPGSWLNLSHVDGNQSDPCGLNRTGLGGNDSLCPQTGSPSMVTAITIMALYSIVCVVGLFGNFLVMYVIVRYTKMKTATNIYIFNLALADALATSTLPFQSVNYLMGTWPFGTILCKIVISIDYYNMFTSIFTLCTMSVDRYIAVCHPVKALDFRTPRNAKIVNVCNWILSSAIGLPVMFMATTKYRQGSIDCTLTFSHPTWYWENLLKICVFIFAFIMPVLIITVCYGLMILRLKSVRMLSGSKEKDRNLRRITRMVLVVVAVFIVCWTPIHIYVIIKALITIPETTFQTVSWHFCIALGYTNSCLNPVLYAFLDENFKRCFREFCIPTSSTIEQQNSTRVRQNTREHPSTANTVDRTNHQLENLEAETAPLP
UniProt P35372, whole entry: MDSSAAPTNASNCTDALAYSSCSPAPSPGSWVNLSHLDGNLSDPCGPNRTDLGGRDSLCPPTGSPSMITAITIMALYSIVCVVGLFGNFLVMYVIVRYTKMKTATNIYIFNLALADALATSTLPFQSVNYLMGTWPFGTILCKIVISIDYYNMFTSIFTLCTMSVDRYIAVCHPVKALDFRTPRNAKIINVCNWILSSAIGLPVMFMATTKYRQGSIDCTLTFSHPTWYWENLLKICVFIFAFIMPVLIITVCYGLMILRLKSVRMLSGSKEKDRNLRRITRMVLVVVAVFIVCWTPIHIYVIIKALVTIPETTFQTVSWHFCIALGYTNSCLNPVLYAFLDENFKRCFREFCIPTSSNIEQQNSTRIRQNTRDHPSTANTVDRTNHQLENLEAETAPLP

How the values were obtained:
[1] = molecular target: T1, Kappa-type opioid receptor (Homo sapiens, UniProt P41145); assay: Displacement of [3H]U69,593 from human KOR expressed in CHO cell membranes after 30 mins by liquid scintillation counting analysis
[2] = molecular target: Delta-type opioid receptor (Homo sapiens, UniProt P41143); assay: Displacement of [3H]DPDPE from human DOR expressed in CHO cell membranes after 30 mins by liquid scintillation counting analysis
[3] = molecular target: Delta-type opioid receptor (Rattus norvegicus, UniProt P33533); assay: Agonist activity at rat DOR expressed in CHO cell membranes after 1 hr by [35S]GTPgammaS binding based liquid scintillation counting analysis
Mu-type opioid receptor [4] = molecular target: Mu-type opioid receptor (Rattus norvegicus, UniProt P33535); assay: Agonist activity at rat MOR expressed in CHO cell membranes after 1 hr by [35S]GTPgammaS binding based liquid scintillation counting analysis
[5] = molecular target: T1, Kappa-type opioid receptor; assay: Agonist activity at human KOR expressed in CHO cell membranes after 1 hr by [35S]GTPgammaS binding based liquid scintillation counting analysis
Mu-type opioid receptor [6] = molecular target: Mu-type opioid receptor (Homo sapiens, UniProt P35372); assay: Displacement of [3H]DAMGO from human MOR expressed in CHO cell membranes after 30 mins by liquid scintillation counting analysis

| Compound | Ki [1] [nM] | Ki [2] [nM] | EC50 [3] [nM] | EC50 (Mu-type opioid receptor [4]) [nM] | EC50 [5] [nM] | Ki (Mu-type opioid receptor [6]) [nM] |
| --- | --- | --- | --- | --- | --- | --- |
| COc1cccc(C(O)[C@@]2(C)C[C@@]34CC[C@]2(OC)[C@@H]2Oc5c(OC)ccc6c5[C@@]23CCN(CC2CC2)[C@@H]4C6)c1 (some centres undefined) | 2.1 | 26.3 |  |  |  |  |
| COc1ccc(C(O)[C@@]2(C)C[C@@]34CC[C@]2(OC)[C@@H]2Oc5c(OC)ccc6c5[C@@]23CCN(CC2CC2)[C@@H]4C6)cc1 (some centres undefined) | 0.6 | 18.9 |  |  |  |  |
| COc1ccc(C(=O)[C@@]2(C)C[C@@]34CC[C@]2(OC)[C@@H]2Oc5c(OC)ccc6c5[C@@]23CCN(CC2CC2)[C@@H]4C6)cc1 | 48.5 | 123 | 594 | 146 | 65.4 | 39.3 |
| COc1ccc2c3c1O[C@H]1[C@@]4(OC)CC[C@@]5(C[C@]4(C)C(O)c4ccc(C(F)(F)F)cc4)[C@@H](C2)N(CC2CC2)CC[C@]315 (some centres undefined) | 9.1 | 59.3 |  |  |  | 12.7 |
| COc1ccc2c3c1O[C@H]1[C@@]4(OC)CC[C@@]5(C[C@]4(C)C(O)c4ccccc4)[C@@H](C2)N(CC2CC2)CC[C@]315 (some centres undefined) | 38 | 485 |  |  |  | 783 |
| COc1ccc2c3c1O[C@H]1[C@@]4(OC)CC[C@@]5(C[C@]4(C)C(=O)c4ccc(-c6ccccc6)cc4)[C@@H](C2)N(CC2CC2)CC[C@]315 | 263 | 349 | 31.2 | 766 | 87.2 | 485 |
| COc1ccc2c3c1O[C@H]1[C@@]4(OC)CC[C@@]5(C[C@]4(C)C(=O)c4ccc(C(F)(F)F)cc4)[C@@H](C2)N(CC2CC2)CC[C@]315 | 72.1 | 127 | 1760 |  | 173 |  |
| COc1ccc2c3c1O[C@H]1[C@@]4(OC)C=C[C@@]5(C[C@@H]4C(=O)c4ccccc4)[C@@H](C2)N(CC2CC2)CC[C@]315 | 0.4 |  | 678 | 130 | 1 | 130 |
| COc1ccc2c3c1O[C@H]1[C@@]4(OC)CC[C@@]5(C[C@]4(C)C(=O)c4ccccc4)[C@@H](C2)N(CC2CC2)CC[C@]315 | 33.2 | 345 | 9990 | 1600 | 1460 | 303 |
| COc1ccc2c3c1O[C@H]1[C@@]4(OC)CC[C@@]5(C[C@]4(C)CO)[C@@H](C2)N(CC2CC2)CC[C@]315 | 2.7 | 116 | 90.8 | 87.3 |  | 30.3 |
| COc1ccc2c3c1O[C@H]1[C@@]4(OC)CC[C@@]5(C[C@]4(C)OC(C)=O)[C@@H](C2)N(CC2CC2)CC[C@]315 | 9 | 104 |  |  |  | 7.2 |
| COc1ccc2c3c1O[C@H]1[C@@]4(OC)CC[C@@]5(C[C@]4(C)OC(=O)c4ccccc4)[C@@H](C2)N(CC2CC2)CC[C@]315 | 1250 | 55.4 |  |  |  | 73.9 |
| COc1ccc2c3c1O[C@H]1[C@@]4(OC)CC[C@@]5(C[C@]4(C)OC(=O)C(C)C)[C@@H](C2)N(CC2CC2)CC[C@]315 | 28 | 264 |  |  |  | 34.1 |
| COc1ccc2c3c1O[C@H]1[C@@]4(OC)CC[C@@]5(C[C@]4(C)OC(=O)c4ccc(C(F)(F)F)cc4)[C@@H](C2)N(CC2CC2)CC[C@]315 | 169 | 160 |  |  |  | 7.1 |
| COc1cccc(C(=O)[C@@]2(C)C[C@@]34CC[C@]2(OC)[C@@H]2Oc5c(OC)ccc6c5[C@@]23CCN(CC2CC2)[C@@H]4C6)c1 | 11.3 | 1490 |  |  |  | 4.3 |
| COc1ccc2c3c1O[C@H]1[C@@]4(OC)CC[C@@]5(C[C@]4(C)C(O)c4ccc(-c6ccccc6)cc4)[C@@H](C2)N(CC2CC2)CC[C@]315 (some centres undefined) | 303 | 48.6 |  |  |  |  |
| COc1ccc2c3c1O[C@H]1[C@@]4(OC)CC[C@@]5(C[C@]4(C)C=O)[C@@H](C2)N(CC2CC2)CC[C@]315 | 4.6 | 179 | 144 | 428 |  | 49.3 |
